Results: the Human Domainome abundance scans (Beltran et al. 2025)
± gives the uncertainty stated by the source.

B1: X-ray repair cross-complementing protein 6, residues 558 to 609; numbered along this chain, P12956 (parent)
chain: EYSEEELKTHISKGTLGKFTVPMLKEACRAYGLKSGLKKQELLEALTKHFQD

Variants of: B1
Assay: abundance fitness (aPCA) (normalised: wild type 0, dead -1); higher = more abundant; growth selection in yeast, the domain comes from the species named
Details: Homo sapiens

Variant | abundance fitness
EYSEEELKTHISKGTLGKFTVPMLKEACRAYGLKSGLKQQELLEALTKHFQD [K39Q] | -0.239 ± 0.1
EYSEEELKTHISKGTLGKFTVPMLKEACRAYGLKSGLKHQELLEALTKHFQD [K39H] | -0.083 ± 0.11
EYSEEELKTHISKGTLGKFTVPMLKEACRAYGLKSGLKPQELLEALTKHFQD [K39P] | -0.381 ± 0.064
EYSEEELKTHISKGTLGKFTVPMLKEACRAYGLKSGLKGQELLEALTKHFQD [K39G] | -0.606 ± 0.049
EYSEEELKTHISKGTLGKFTVPMLKEACRAYGLKSGLKDQELLEALTKHFQD [K39D] | -1.05 ± 0.2
EYSEEELKTHISKGTLGKFTVPMLKEACRAYGLKTGLKKQELLEALTKHFQD [S35T] | 0.075 ± 0.055
EYSEEELKTHISKGTLGKFTVPMLKEACRAYGLKAGLKKQELLEALTKHFQD [S35A] | 0.082 ± 0.071
EYSEEELKTHISKGTLGKFTVPMLKEACRAYGLKIGLKKQELLEALTKHFQD [S35I] | -0.029 ± 0.1
EYSEEELKTHISKGTLGKFTVPMLKEACRAYGLKCGLKKQELLEALTKHFQD [S35C] | 0 ± 0.088
EYSEEELKTHISKGTLGKFTVPMLKEACRAYGLKNGLKKQELLEALTKHFQD [S35N] | -0.61 ± 0.19
EYSEEELKTHISKGTLGKFTVPMLKEACRAYGLKPGLKKQELLEALTKHFQD [S35P] | -0.012 ± 0.097
EYSEEELKTHISKGTLGKFTVPMLKEACRAYGLKLGLKKQELLEALTKHFQD [S35L] | -0.131 ± 0.05
EYSEEELKTHISKGTLGKFTVPMLKEACRAYGLKHGLKKQELLEALTKHFQD [S35H] | -0.228 ± 0.11
EYSEEELKTHISKGTLGKFTVPMLKEACRAYGLKDGLKKQELLEALTKHFQD [S35D] | -0.096 ± 0.1
EYSEEELKTHISKGTLGKFTVPMLKEACRAYGLKKGLKKQELLEALTKHFQD [S35K] | -0.638 ± 0.17
EYSEEELKTHISKGTLGKFTVPMLKEACRAYGLKEGLKKQELLEALTKHFQD [S35E] | -0.351 ± 0.12
EYSEEELKTHISKGTLGKFTVPMLKEACRAYGLKMGLKKQELLEALTKHFQD [S35M] | -0.341 ± 0.14
EYSEEELKTHISKGTLGKFTVPMLKEACRAYGLKGGLKKQELLEALTKHFQD [S35G] | 0.012 ± 0.062
EYSEEELKTHISKGTLGKFTVPMLKEACRAYGLKYGLKKQELLEALTKHFQD [S35Y] | -0.371 ± 0.11
EYSEEELKTHISKGTLGKFTVPMLKEACRAYGLKFGLKKQELLEALTKHFQD [S35F] | -0.025 ± 0.084
EYSEEELKTHISKGTLGKFTVPMLKEACRAYGLKVGLKKQELLEALTKHFQD [S35V] | 0.048 ± 0.056
EYSEEELKTHISKGTLGKFTVPMLKEACRAYGLKWGLKKQELLEALTKHFQD [S35W] | -0.582 ± 0.13
EYSEEELKTHISKGTLGKFTVPMLKEACRAYGLKRGLKKQELLEALTKHFQD [S35R] | -0.371 ± 0.081
EYSEEELKTHISKGTLGKFTVPMLKEACRAYGLKQGLKKQELLEALTKHFQD [S35Q] | -0.308 ± 0.12
EYSEEELKTHISKGTLGKFTVPMLKEACRAYGLKSSLKKQELLEALTKHFQD [G36S] | -0.046 ± 0.064

Variant | abundance fitness
EYSEEELKTHISKGTLGKFTVPMLKEACRAYGLKSDLKKQELLEALTKHFQD [G36D] | 0.3 ± 0.13
EYSEEELKTHISKGTLGKFTVPMLKEACRAYGLKSQLKKQELLEALTKHFQD [G36Q] | -0.946 ± 0.42
EYSEEELKTHISKGTLGKFTVPMLKEACRAYGLKSVLKKQELLEALTKHFQD [G36V] | -0.62 ± 0.45
EYSEEELKTHISKGTLGKFTVPMLKEACRAYGTKSGLKKQELLEALTKHFQD [L33T] | -0.982 ± 0.39
EYSEEELKTHISKGTLGKFTVPMLKEACRAYGVKSGLKKQELLEALTKHFQD [L33V] | -0.025 ± 0.055
EYSEEELKTHISKGTLGKFTVPMLKEACRAYGYKSGLKKQELLEALTKHFQD [L33Y] | -0.784 ± 0.075
EYSEEELKTHISKGTLGKFTVPMLKEACRAYGWKSGLKKQELLEALTKHFQD [L33W] | -1.06 ± 0.085
EYSEEELKTHISKGTLGKFTVPMLKEACRAYGLKSGFKKQELLEALTKHFQD [L37F] | -0.171 ± 0.071
EYSEEELKTHISKGTLGKFTVPMLKEACRAYGLKSGHKKQELLEALTKHFQD [L37H] | 0.17 ± 0.1
EYSEEELKTHISKGTLGKFTVPMLKEACRAYGLKSGCKKQELLEALTKHFQD [L37C] | -0.111 ± 0.076
EYSEEELKTHISKGTLGKFTVPMLKEACRAYGLKSGDKKQELLEALTKHFQD [L37D] | 0.042 ± 0.059
EYSEEELKTHISKGTLGKFTVPMLKEACRAYGLKSGEKKQELLEALTKHFQD [L37E] | 0.078 ± 0.058
EYSEEELKTHISKGTLGKFTVPMLKEACRAYGLKSGPKKQELLEALTKHFQD [L37P] | -0.052 ± 0.065
EYSEEELKTHISKGTLGKFTVPMLKEACRAYGLKSGNKKQELLEALTKHFQD [L37N] | -0.327 ± 0.1
EYSEEELKTHISKGTLGKFTVPMLKEACRAYGLKSGAKKQELLEALTKHFQD [L37A] | 0.027 ± 0.071
EYSEEELKTHISKGTLGKFTVPMLKEACRAYGLKSGMKKQELLEALTKHFQD [L37M] | -0.036 ± 0.073
EYSEEELKTHISKGTLGKFTVPMLKEACRAYGLKSGSKKQELLEALTKHFQD [L37S] | -0.091 ± 0.065
EYSEEELKTHISKGTLGKFTVPMLKEACRAYGLKSGGKKQELLEALTKHFQD [L37G] | 0.084 ± 0.048
EYSEEELKTHISKGTLGKFTVPMLKEACRAYGLKSGVKKQELLEALTKHFQD [L37V] | 0.051 ± 0.048
EYSEEELKTHISKGTLGKFTVPMLKEACRAYGLKSGKKKQELLEALTKHFQD [L37K] | 0.031 ± 0.052
EYSEEELKTHISKGTLGKFTVPMLKEACRAYGLKSGQKKQELLEALTKHFQD [L37Q] | -0.211 ± 0.088
EYSEEELKTHISKGTLGKFTVPMLKEACRAYGLKSGWKKQELLEALTKHFQD [L37W] | -0.086 ± 0.062
EYSEEELKTHISKGTLGKFTVPMLKEACRAYGLKSGTKKQELLEALTKHFQD [L37T] | 0.031 ± 0.054
EYSEEELKTHISKGTLGKFTVPMLKEACRAYGLKSGIKKQELLEALTKHFQD [L37I] | 0.075 ± 0.091
EYSEEELKTHISKGTLGKFTVPMLKEACRAYGLKSGYKKQELLEALTKHFQD [L37Y] | -0.11 ± 0.087
